Data from article PMC8491194, “A cyclic peptide retards the proliferation of DU145 prostate cancer cells in vitro and in vivo through inhibition of FGFR2” (MedComm, 2020).

Legend:
[1] = system: heart, liver, spleen, lung, and kidney; test: H&E staining of major organs of tumor-bearing mice; assay type: in vivo, BALB/C‐nu/nu mice; conditions: tumor-bearing mice at functional doses, paraffin sections
Procedure: DU145 cells with a density above 90% were harvested in to a microtube. The cell concentration was adjusted to 1 × 10^7 cells/mL, and two million cells were injected under the right arm of each individual. After injection, the tumors grew to a size of approximately 200 mm^3 in the following days. In terms of experimental grouping, there were five experimental groups; namely, the blank control group (PBS), the P5‐3 group (50 mg/kg dose of biotin‐P5‐3), the P5 group (concentration gradient of 10‐25 mg/kg), the DcP5 group (concentrations of 10, 25, and 50 mg/kg dose of biotin‐DcP5 peptide), and the positive control group (FGFR2‐targeted antineoplastic drug AZD4547 with a dose of 6.25 mg/kg). Animal models were randomly selected and assigned to each experimental group, and compounds were administered by intratumoral injections. The dosing regimen was one injection a day for 7 days. The length and width of the tumor were measured using a Vernier caliper once a day, and the animal's weight was recorded once a day from the beginning of the experiment. On Day 14, blood samples of each animal were collected, the tumor tissue was separated and weighed, and internal organs were collected. The tumor volume was calculated according to the formula V = ab ^2/2 (a refers to the length of the tumor, and b refers to the width). […]

[2] = Body weight of tumor-bearing mice; assay type: in vivo, BALB/C‐nu/nu mice; conditions: various dosing regimens; data not shown
Procedure: DU145 cells with a density above 90% were harvested in to a microtube. The cell concentration was adjusted to 1 × 10^7 cells/mL, and two million cells were injected under the right arm of each individual. After injection, the tumors grew to a size of approximately 200 mm^3 in the following days. In terms of experimental grouping, there were five experimental groups; namely, the blank control group (PBS), the P5‐3 group (50 mg/kg dose of biotin‐P5‐3), the P5 group (concentration gradient of 10‐25 mg/kg), the DcP5 group (concentrations of 10, 25, and 50 mg/kg dose of biotin‐DcP5 peptide), and the positive control group (FGFR2‐targeted antineoplastic drug AZD4547 with a dose of 6.25 mg/kg). Animal models were randomly selected and assigned to each experimental group, and compounds were administered by intratumoral injections. The dosing regimen was one injection a day for 7 days. The length and width of the tumor were measured using a Vernier caliper once a day, and the animal's weight was recorded once a day from the beginning of the experiment. On Day 14, blood samples of each animal were collected, the tumor tissue was separated and weighed, and internal organs were collected. The tumor volume was calculated according to the formula V = ab ^2/2 (a refers to the length of the tumor, and b refers to the width).

AZD4547 [reference compound]
toxicity toward heart, liver, spleen, lung, and kidney (H&E morphology) [1]: negligible toxicity
body weight versus other groups incl. blank [2]: little difference in body weight
